How the values were obtained:
Oc1ccc(O)cc1 = experiment: purified protein, by the assay type
Cellobiose = experiment: purified protein, by the assay type

Q: RfLacA (Reticulitermes flavipes) was tested. Which Km (Oc1ccc(O)cc1) did it give?
A: The Km was 2306 µM.

Q: What does the source list for “recombinant RfBGluc-1 β-glucosidase (Reticulitermes flavipes)”?
A: Km (Cellobiose): 1440 ± 140 µM; Vmax (Cellobiose): 638 µmol/min/mg

From patent US8445240B2, “Termite enzymes and uses thereof for in vitro conversion of lignin-containing materials to fermentable products” (University of Florida Research Foundation, Inc., priority 2009, dated 2013)
